# Literature values, collected in paper PMC7993274 (Clinical and Translational Science, 2020).
# Settings: patients with psoriasis, up to 12 mg total daily dose; cited from earlier work
substance,measurement,value
BMS‐986165,acne and aphthous ulcer AEs,"Several cases of dose‐dependent, mild‐to‐moderate acne, and cases of aphthous ulcer"
